{"source": "patent US20180030537A1", "about": "“PUMA, A PRO-APOPTOTIC GENE, AS A NOVEL MOLECULAR BIOMARKER FOR TNFALPHA-INDUCED HUMAN ISLET DAMAGE” (CITY OF HOPE, priority 2010, published 2018)", "format_in_all_cases": "cell-based", "key": {"acinar cells": {"test_system": "acinar cells", "assay": "TNF-α stimulation of human acinar cells, mRNA quantification", "conditions": "1, 5, 50 ng/ml", "method": "FIGS. 8A-L. TNF-α induces PUMA expression in human islets and acinar cells. FIG. 8A) TNF-α induced Bcl-2 family mRNA in islets. Single islets were stimulated with or without 50 ng/ml TNF-α for 16 hours. Each dot indicates the result of one islet lot tested in hextuplicate. The tests were performed using 4 different human islet lots. Bars indicate the mean of 4 lots. Each gene expression was normalized by ACTB (a gene encoding β actin), and the fold increase was calculated by dividing TNF-α treated islets by control islets (*p<0.01, n=4). […] FIGS. 8B-D) PUMA (FIG. 8B), IL-8 (FIG. 8C) and TNF-α (FIG. 8D) expression from single human islets (n=6) stimulated with 0 (open circles), 1 (solid triangles), 5 (solid squares) and 50 ng/ml (solid circles) TNF-α for 0, 1, 4, 16 hours in 3 independent cases. Dose dependent expression of (FIG. 8E) PUMA, (FIG. 8F) IL-8 and (FIG. 8G) TNF-α in human islet at the 4 hour time point (n=3). The PUMA expression in human islets was elevated by TNF-α as early as one hour, increased during the next 4 hours, and maintained at the similar level for 16 hours. […] (FIG. 8H) PUMA, (FIG. 8I) IL-8 and (FIG. 8J) TNF-α mRNA expression in acinar cells, in triplicate, stimulated with 0 (open circles), 1 (solid triangles), 5 (solid squares) and 50 (solid circles) ng/ml TNF-α for 0, 1, 4, 16 hours. Representative data from two independent cases is shown. (FIG. 8K) PUMA and (FIG. 8L) IL-8 expression in human islets stimulated with or without TNF-α (1, 5, 50 ng/ml) and/or IFNγ (10, 100, 1000 U/ml) for 4 hours. When combined with TNF-α, IFNγ strongly augmented TNF-α mediated PUMA expression. PUMA expression is highest for TNF-α at 50 ng/ml+IFNγ at 1000 U/ml. […] All data are presented as a mean±standard error. […] However, unlike in the islets, the expression of PUMA and IL-8 reached to the peak level by 4 hours and decreased to the basal level by 16 hours. […]"}, "human islets [1]": {"test_system": "human islets", "assay": "Western blot of PUMA and phospho-p65 in cultured human islets", "method": "FIG. 2A) 500 islet equivalents (IEQs) were cultured with or without TNF-α (5 and 50 ng/ml) and/or IFNγ (1000 U/ml) for 24 hours. Cell lysate was used for western blot to examine the PUMA expression in islets (*p<0.05, **p<0.005, n=3). […] (p=NS, n=3). FIG. 2C) Islets pre-incubated with NFκB inhibitor, BAY 11-7082, for 1 hour prior to TNF-α (50 ng/ml) or in combination with IFNγ (1000 U/ml) stimulation were examined by western blot to determine PUMA expression (n=3). FIG. 2D) Islets pre-incubated with NFκB inhibitor, BAY 11-7082, for 1 hour prior to TNF-α (50 ng/ml) stimulation were examined by western blot to determine PUMA expression (n=3). All data are presented as a mean±standard error. […] The up-regulation of PUMA by TNF-α was enhanced by the addition of IFNγ.\nFive hundred IEQ samples were harvested before and 24 hours after culture with or without TNF-α and/or IFNγ, washed twice with ice cold phosphate buffered saline (PBS), and stored at −80° C. until use. In some experiments, islets were pre-incubated with 10 μM NFκB inhibitor; BAY11-7082 for 1 hour before cytokine stimulation. Islet cell lysis and western blot was performed as previously described (49).\nTranslation of PUMA induced by TNF-α alone or in combination with IFN-γ into PUMA protein was examined. Islets were stimulated in culture for 16 hours with TNF-α alone or together with IFN-γ, lysed and analyzed by western blot. […]"}, "human islets [2]": {"test_system": "human islets", "assay": "Cytokine stimulation of single human islets, mRNA quantification", "method": "FIGS. 8A-L. TNF-α induces PUMA expression in human islets and acinar cells. FIG. 8A) TNF-α induced Bcl-2 family mRNA in islets. Single islets were stimulated with or without 50 ng/ml TNF-α for 16 hours. Each dot indicates the result of one islet lot tested in hextuplicate. The tests were performed using 4 different human islet lots. Bars indicate the mean of 4 lots. Each gene expression was normalized by ACTB (a gene encoding β actin), and the fold increase was calculated by dividing TNF-α treated islets by control islets (*p<0.01, n=4). […] FIGS. 8B-D) PUMA (FIG. 8B), IL-8 (FIG. 8C) and TNF-α (FIG. 8D) expression from single human islets (n=6) stimulated with 0 (open circles), 1 (solid triangles), 5 (solid squares) and 50 ng/ml (solid circles) TNF-α for 0, 1, 4, 16 hours in 3 independent cases. Dose dependent expression of (FIG. 8E) PUMA, (FIG. 8F) IL-8 and (FIG. 8G) TNF-α in human islet at the 4 hour time point (n=3). The PUMA expression in human islets was elevated by TNF-α as early as one hour, increased during the next 4 hours, and maintained at the similar level for 16 hours. […] (FIG. 8H) PUMA, (FIG. 8I) IL-8 and (FIG. 8J) TNF-α mRNA expression in acinar cells, in triplicate, stimulated with 0 (open circles), 1 (solid triangles), 5 (solid squares) and 50 (solid circles) ng/ml TNF-α for 0, 1, 4, 16 hours. Representative data from two independent cases is shown. (FIG. 8K) PUMA and (FIG. 8L) IL-8 expression in human islets stimulated with or without TNF-α (1, 5, 50 ng/ml) and/or IFNγ (10, 100, 1000 U/ml) for 4 hours. When combined with TNF-α, IFNγ strongly augmented TNF-α mediated PUMA expression. PUMA expression is highest for TNF-α at 50 ng/ml+IFNγ at 1000 U/ml. […] All data are presented as a mean±standard error. […] However, unlike in the islets, the expression of PUMA and IL-8 reached to the peak level by 4 hours and decreased to the basal level by 16 hours.\nHuman islets and acinar cells isolated for research use were obtained from the Southern California Islet Cell Resources (SC-ICR) Center, Beckman Research Institute of the City of Hope (Duarte, Calif.) 1 to 3 days after isolation. The donor age ranged from 18 to 67 (48±14) years and included both sexes. Islet preparations with >70% purity and >90% viability were used. The use of human islets and acinar cells in this study was approved by the Institutional Review Board of the City of Hope. For mRNA experiments, islets between 150 μm to 300 μm in diameter (medium size islet) were handpicked in hexuplicate by experienced personnel under a dissection microscope without staining. […]"}}}
{"substance": "TNF-α: recombinant human (or rat, for INS-1) TNF-α, R&D Systems; cytokine stimulus", "values": [{"measurement": "TNF mRNA expression in acinar cells", "setting": "acinar cells; FIG. 8J", "result": "increased"}, {"measurement": "PUMA mRNA expression in acinar cells", "setting": "acinar cells; peak by 4 hours, basal by 16 hours, FIG. 8H", "result": "increased"}, {"measurement": "IL-8 mRNA expression in acinar cells", "setting": "acinar cells; peak by 4 hours, basal by 16 hours, FIG. 8I", "result": "increased"}, {"measurement": "PUMA protein expression (western blot)", "setting": "human islets [1]; TNF-α 50 ng/mL and/or IFN-γ 1000 U/mL, FIG. 2A", "result": "significantly increased"}, {"measurement": "phosphorylation of p65 protein (Ser536)", "setting": "human islets [1]; cytokine stimulated islets, FIG. 2B", "result": "Increased phosphorylation"}, {"measurement": "increases in other Bcl-2 family mRNAs", "setting": "human islets [2]; 50 ng/mL, 16 hours, n=4, FIG. 8A", "result": "less than 2 fold"}, {"measurement": "PUMA mRNA fold increase vs non-stimulated controls", "setting": "human islets [2]; 50 ng/mL, 16 hours, n=4 islet lots, FIG. 8A", "result": "1.9-4.7 fold"}, {"measurement": "IL-8 mRNA expression in human islets", "setting": "human islets [2]; TNF-α 1, 5, 50 ng/ml and/or IFNγ 10, 100, 1000 U/ml, FIG. 8C, 8F, 8L", "result": "increased"}, {"measurement": "endogenous TNF mRNA expression in human islets", "setting": "human islets [2]; TNF-α 1, 5, 50 ng/ml up to 16 hours, FIG. 8D, 8G", "result": "induce TNF mRNA expression"}]}
